Measurements taken from patent US20220362153A1, “COMPOSITIONS AND METHODS FOR PULMONARY SURFACTANT-BIOMIMETIC NANOPARTICLES” (priority 2019, published 2022).

System: pulmonary cells (AMs, AECs, DCs)
Conditions: mouse, in vivo

poly IC
total AECs that took up poly IC in the lung: 0.4% | total DCs that took up poly IC in the lung: 4% | uptake by MLN and nasal tissue DCs and nasal epithelial cells: rarely internalized poly IC | poly IC remaining within AMs (12 h): > 97%
